Entries after “also recorded” stand apart in the source; their conditions may differ.

The values below come from US20020177166A1, “Binding motif of a receptor” (MEDVET SCIENCE PTY.LTD., priority 2000, published 2002).

What all share (assay type): cell-based
The test system of one experiment is surface-labelled βc. The experiment can be described thus: Stoichiometry of βc phosphorylation in I125 surface-labelled CTL-EN cells. To be noted: following IL-3 stimulation. From the text: (§1) To address the functional significance of 14-3-3 binding to βc cell lines were generated expressing either wild type (wt) or mutant IL-3 receptors lacking the 143-3 binding site. […] The βc was immunoprecipitated and then subjected to immunoblot analysis using the anti-phospho-Ser585βc antibody. […] No association of 14-3-3 with the βcHSRSLP→EFAAAA or the βcS585G mutant controls in response to IL-3 was observed. […] The stoichiometry of Ser585 phosphorylation in response to IL-3 in vivo was also examined and compared to βc tyrosine phosphorylation. In these experiments, βc was immunoprecipitated from I^125 surface-labelled CTL-EN cells (to avoid detection of intracellular-only βc) with either anti-phosphorSer585, anti-phosphotyrosine or anti-βc antibodies from both IL-3-stimulated (+IL-3) or non-stimulated (−IL-3) cells expressing wtβc or βcS585G receptors. Immunoprecipitates were electrophoresed on a polyacrylamide gel and the amount of radiolabelled receptor immunoprecipitated was quantified using a phosphorImager. […] As we have previously reported (Stomski et al., 1996), immunoprecipitation of the βc from I^125 surface-labelled cells following IL-3 stimulation results in the co-immunoprecipitation of IL-3Rα.

For experiment [1], the system named is Ser585 phosphorylation of βc in MO7e cells. Briefly: Ser585 phosphorylation and 14-3-3 recruitment in MO7e cells. To be noted: endogenous IL-3 receptors.
Text: as §1, with “IL-3Rα. […]” for “IL-3Rα.”

The subject of experiment [2] is Ser585 phosphorylation of βc in CTL-EN cells. The experiment can be described thus: Ser585 phosphorylation of βc in CTL-EN cells expressing IL-3Ra and wtβc, immunoblot. The settings on record: 50 ng/ml IL-3, 50 μM forskolin or 100 μM dibutyryl cAMP. The procedure: CTL-EN cells expressing IL-3Ra and either wtβc or βcHSRSLP→EFAAAA were washed, starved for 4 hours in DMEM containing 0.1% FCS and then stimulated with 50 ng/ml IL-3 for the indicated times. Cells were then lysed and the βc immunoprecipitated (7×10^7 cells/IP) with the 1C1 anti-βc specific mAb. Immunoprecipitates were divided and 80% or 20% were separately run on SDS-PAGE and transferred to nitrocellulose filters. (a) 80% of the immunoprecipitates were probed with the anti-phospho-Ser585βc antibody, the filters stripped, and reprobed with the 1C1 anti-βc mAb. 20% or the immunoprecipitates were probed with the 4G10 anti-phosphotyrosine antibody. (b) Regulation of 14-3-3 association with βc following IL-3 stimulation. […]
Peptide competitions were also performed using 200 mM peptides containing the indicated sequences. b) The ability of PKA and CKII to phosphorylate Ser585 of hisβc445-881 was examined by immunoblot analysis using the anti-phospho-Ser585βc antibodies. […] Ser585 phosphorylation of βc was determined using the anti-phospho-Ser585 antibodies (top panel). […]
The regulation of βcSer585 phosphorylation in response to IL-3 stimulation was then examined in these cell lines using anti-phospho-Ser585βc antibodies. […] Tyrosine phosphorylation of βc was detected for both the wtβc and the βcHSRSLP→EFAAAA mutant (FIG. 11a). […]

B1: IL-3: recombinant human IL-3 produced in E. coli (protein, UniProt P08700 20-152, looked up)
Interleukin-3: APMTQTTPLKTSWVNCSNMIDEIITHLKQPPLPLLDFNNLNGEDQDILMENNLRRPNLEAFNRAVKSLQNASAIESILKNLLPCLPLATAAPTRHPIHIKDGDWNEFRRKLTFYLKTLENAQAQQTTLSLAIF
For the molecule B1, in the experiment on surface-labelled βc (cells expressing wtβc), the “surface-labelled βc phosphorylated on Ser585” value is on record as “approximately 87%” and the “βc phosphorylated on tyrosine” value is on record as “approximately 94%”. Moreover, the “surface-labelled βcS585G tyrosine phosphorylated” value in the experiment with surface-labelled βc (cells expressing βcS585G) is reported as “Approximately 95%”. In addition, the “Ser585 phosphorylation and 14-3-3 recruitment” value in experiment [1] is “increased Ser585 phosphorylation and 14-3-3 recruitment”. Further, the “Ser585 phosphorylation of βc after stimulation” value in experiment [2] is “upregulated; also recorded: increased Ser585 phosphorylation”.
